The entries are a selection whose mix differs from that of the whole data set. Active and inactive are the calls of the source.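 Rule for the calls: active = mean activation of at least 80% with every replicate also reaching 80%; inconclusive = mean reaches 80% but some replicate falls short; inactive = the rest.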

The test is described as follows: MITF-driven TRPM1 luciferase induction in melanoma cells – cell-based, SK-MEL-5, single point, primary screen (AID 588334).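 Note: 0% = neutral control wells and 100% = parthenolide positive control wells.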 The conditions noted are these: SK-MEL-5 TRPM1-promoter luciferase, 24 h; at 12.5 µM; stronger effect = higher value; % of positive control, neutral wells = 0.
For the compound `CCC(=O)N(c1ccccc1)C1(COC)CCN(CCc2cccs2)CC1`, the activation was inactive: 3.6%. In the case of `CCC(=O)N(c1ccccc1)C1(COC)CCN(CCn2nnn(CC)c2=O)CC1` it was inactive: -2.45%.

These data come from PubChem BioAssay AID588334 (Broad Institute, 2011).
